Test system: Ramos B cells
Experiment: CDC activity, propidium iodide flow cytometry with human serum
Type: cell-based
Settings: TRU-015 from CHO cells treated with 30 μg/ml castanospermine
Experimental: To determine the CDC activity of TRU-016 purified protein produced according to Example 2, Ramos B cells were suspended in Iscoves (Gibco/Invitrogen, Grand Island, N.Y.) at 5×10^5 cells/well in 75 μl. TRU-016 (75 μl) were added to the cells at twice the concentrations indicated. Binding reactions were allowed to proceed for 45 minutes prior to centrifugation and washing in serum-free Iscoves. Cells were resuspended in Iscoves with human serum (containing complement) at various concentrations. The cells were incubated 60 minutes at 37° C. Cells were washed by centrifugation and resuspended in staining media with 0.5 μg/ml propidium iodide. Samples were incubated 15 minutes at room temperature in the dark prior to analysis by flow cytometry using a FACsCalibur and CellQuest software (Becton Dickinson).

## TRU-015: recombinant single chain protein (SMIP) that binds CD20; 2H7 variable regions, CSS hinge, human IgG1 CH2 and CH3; SEQ ID NO: 4
  CDC compared with protein produced by untreated CHO cells: similar
